This note sets out measurements from publication PMC4835244 (Stem Cells Translational Medicine, 2016).

The subject of the series is HepG2 cells. The following applies: human, 18 h.

Turning to `Nc1nc2nc[nH]c2c(=S)[nH]1` [6-Thioguanine], the “Cytotoxicity to HepG2 cells (CTG)” value was “cytotoxic to HepG2 cells”.
